One experiment addresses GST-MERTK 578-872 (Homo sapiens (Human), UniProt Q12866). The experiment can be described thus: MERTK kinase homogeneous time resolved fluorescence (HTRF) binding assay. The settings on record: read-out: Mer HTRF IC50; 1 nM kinase, fluorescein-labeled kinase tracer at Kd, 60 minutes at room temperature. The protocol:
(§1) MERTK, AXL, TYRO3 Kinase Homogeneous Time Resolved Fluorescence (HTRF) Assay
(§2) Binding assays contained 1 nM kinase (GST-MERTK 578-872, HIS-AXL 473-End, or GST-TYRO 451-890), 0.2 nM terbium labelled antibody (anti-GST or anti-HIS), fluorescein-labeled kinase tracer at its respective kinase Kd, and test compounds in assay buffer consisting of 20 mM Hepes pH 7.5, 10 mM MgCl2, 0.015% Brij-35, 2 mM DTT, and 50 μg/ml BSA. Assays were performed in black, flat-bottom, 1536-well plates. The reactions were incubated at room temperature for 60 minutes, following which the HTRF signals, ratio of fluorescence intensities at emission wavelengths for fluorescein acceptor (520 nm) and terbium donor (495 nm), the 520/495 ratio, were measured on the Envision Plate reader. Inhibition data were calculated from the 520/495 ratio generated by the no protein control reactions for 100% inhibition and vehicle-only reactions for 0% inhibition, and dose response curves generated to determine the concentration required for inhibiting 50% of the HTRF signal (IC50). Compounds were dissolved at 10 mM in dimethylsulfoxide (DMSO) and evaluated at eleven concentrations.
(Time-resolved FRET reads energy transfer from a long-lived donor to a nearby acceptor.)

By UniProt entry, the sequences of proteins in these tests, tags left out. Residues count along the entry.
UniProt Q12866, 578-872 limits assumed: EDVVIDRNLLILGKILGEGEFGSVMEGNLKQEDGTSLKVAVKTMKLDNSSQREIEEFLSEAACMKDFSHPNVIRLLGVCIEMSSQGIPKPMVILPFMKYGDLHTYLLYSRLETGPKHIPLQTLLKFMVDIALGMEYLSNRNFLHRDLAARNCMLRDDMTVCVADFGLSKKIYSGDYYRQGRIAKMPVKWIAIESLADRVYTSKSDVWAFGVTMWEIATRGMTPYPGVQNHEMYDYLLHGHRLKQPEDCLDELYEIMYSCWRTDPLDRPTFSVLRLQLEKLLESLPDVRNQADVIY
UniProt P30530, 473-894 limits assumed: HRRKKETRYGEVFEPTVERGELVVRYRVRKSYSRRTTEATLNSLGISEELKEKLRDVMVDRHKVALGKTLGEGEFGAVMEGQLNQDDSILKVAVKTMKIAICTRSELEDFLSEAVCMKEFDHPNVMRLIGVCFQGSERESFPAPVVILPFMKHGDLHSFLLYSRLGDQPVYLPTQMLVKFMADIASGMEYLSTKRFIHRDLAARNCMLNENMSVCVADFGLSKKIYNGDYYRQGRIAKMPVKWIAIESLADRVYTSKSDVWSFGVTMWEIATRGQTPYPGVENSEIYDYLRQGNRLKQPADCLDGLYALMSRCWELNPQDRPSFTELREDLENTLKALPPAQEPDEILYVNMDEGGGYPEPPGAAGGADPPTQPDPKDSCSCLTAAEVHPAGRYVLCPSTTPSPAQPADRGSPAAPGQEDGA

The next experiment concerns the target HIS-AXL 473-End (Homo sapiens (Human), UniProt P30530). Description: AXL kinase homogeneous time resolved fluorescence (HTRF) binding assay. The following applies: read-out: Axl HTRF IC50; 1 nM kinase, fluorescein-labeled kinase tracer at Kd, 60 minutes at room temperature. The protocol: as §1, §2

For orientation: IC50 means the point on the concentration scale where inhibition reaches its midpoint. For `CC(C)n1cc(C(=O)Nc2ccc(Oc3ccnc(Nc4ccc(S(=O)(=O)N(C)C)cn4)c3)c(F)c2)c(=O)n(CC2CC2)c1=O`, at GST-MERTK 578-872, the IC50 worked out at 89 nM.
With `COc1ccc(-n2c(=O)c(C(=O)Nc3ccc(Oc4ccnc(Nc5ccc(S(=O)(=O)N(C)C)cn5)c4)c(F)c3)cn(C(C)C)c2=O)cc1`, the IC50 at GST-MERTK 578-872 amounted to 119 nM; on HIS-AXL 473-End it was 62 nM.
For `COc1ccccc1Cn1c(=O)c(C(=O)Nc2ccc(Oc3ccnc(Nc4ccc(S(=O)(=O)N(C)C)cn4)c3)c(F)c2)cn(C(C)C)c1=O` the same measures were 114 nM and 995 nM.
With `CC(C)n1cc(C(=O)Nc2ccc(Oc3ccnc(Nc4ccc(C#N)c(N5CCN(S(C)(=O)=O)CC5)n4)c3)c(F)c2)c(=O)n(Cc2ccccc2)c1=O`, the figures for the IC50 at GST-MERTK 578-872 and on HIS-AXL 473-End were 21 nM and 25 nM, respectively.
For `CC(C)n1cc(C(=O)Nc2ccc(Oc3ccnc(Nc4ccc(C(F)(F)F)cn4)c3)c(F)c2)c(=O)n(-c2ccc(F)cc2)c1=O` the same measures were 105 nM and 66 nM.
For `CC(C)n1cc(C(=O)Nc2ccc(Oc3ccnc(Nc4ccc(S(=O)(=O)N(C)C)cn4)c3)c(F)c2)c(=O)n(-c2cccc(Cl)c2)c1=O` the same measures were 71 nM and 87 nM.
With `CC(C)n1cc(C(=O)Nc2ccc(Oc3ccnc(Nc4ccc(C#N)c(N5CCN(S(C)(=O)=O)CC5)n4)c3)c(F)c2)c(=O)n(Cc2ccc(F)cc2)c1=O`, the IC50 on GST-MERTK 578-872 amounted to 8.6 nM; at HIS-AXL 473-End it was 5.2 nM.
For `CC(C)Cn1c(=O)c(C(=O)Nc2ccc(Oc3ccnc(Nc4ccc(S(=O)(=O)N(C)C)cn4)c3)c(F)c2)cn(C(C)C)c1=O` the same measures were 216 nM and 62 nM.
On to `CC(C)n1cc(C(=O)Nc2ccc(Oc3ccnc(Nc4ccc(S(=O)(=O)N(C)C)cn4)c3)c(F)c2)c(=O)n(Cc2ccc(F)cc2)c1=O`, for which the IC50 amounted to 794 nM at GST-MERTK 578-872 and 4170 nM on HIS-AXL 473-End.
Take `CC(C)n1cc(C(=O)Nc2ccc(Oc3ccnc(Nc4ccc(S(=O)(=O)N5CC(C)(O)C5)cn4)c3)c(F)c2)c(=O)n(-c2ccc(F)cc2)c1=O`: the IC50 on GST-MERTK 578-872 stood at 13 nM; at HIS-AXL 473-End, 3.4 nM.
For `CC(C)n1cc(C(=O)Nc2ccc(Oc3ccnc(Nc4ccc(C#N)c(N5CC[C@H](O)C5)n4)c3)c(F)c2)c(=O)n(CCc2ccccc2)c1=O` the same measures were 22 nM and 52 nM.
For the compound `CC(C)n1cc(C(=O)Nc2ccc(Oc3ccnc(Nc4ccc(S(=O)(=O)N(C)C)cn4)c3)c(F)c2)c(=O)n(C(C)C)c1=O`, the IC50 is 175 nM on GST-MERTK 578-872 and 140 nM at HIS-AXL 473-End.
For `CC(C)n1cc(C(=O)Nc2ccc(Oc3ccnc(Nc4ccc(S(=O)(=O)N(C)C)cn4)c3)c(F)c2)c(=O)n(CCC2CC2)c1=O` the same measures were 137 nM and 12 nM.
Take `CC(C)n1cc(C(=O)Nc2ccc(Oc3ccnc(Nc4ccc(S(=O)(=O)N(C)C)c(N5CCC(S(C)(=O)=O)CC5)n4)c3)c(F)c2)c(=O)n(-c2ccc(F)cc2)c1=O`: the IC50 turned out to be 1.6 nM at GST-MERTK 578-872 and 1.9 nM at HIS-AXL 473-End.
With `CC(C)n1cc(C(=O)Nc2ccc(Oc3ccnc(Nc4ccc(C#N)c(N5CCC(S(C)(=O)=O)CC5)n4)c3)c(F)c2)c(=O)n(Cc2ccccc2)c1=O`, on GST-MERTK 578-872, the IC50 was 2.9 nM.
